This assay deals with T1, human mGluR4 (Homo sapiens, UniProt Q14833).
T1 construct: expressed in transfected cells; host or cells: CHO cells
Briefly: human mGluR4 potentiation, Ca2+-sensitive dye fluorescence assay in transfected CHO cells. The format is cell-based. The note with it: EC50 for potentiation, human mGluR4, with EC20 concentration of agonist; read-out: hEC50. How it is done: The disclosed compounds and compositions can be evaluated for their ability to act as a potentiator of metabotropic glutamate receptor activity, in particular mGluR4 activity, by any suitable known methodology known in the art. For example, Chinese Hamster Ovary (CHO) cells transfected with human mGluR4 or HEK cells co-transfected with rat mGluR4 and the G-protein regulated Inwardly Rectifying Potassium channel (GIRK) were plated in clear bottom assay plates for assay in a Hamamatsu FDSS Fluorometric Plate Reader. The cells were loaded with either a Ca2+-sensitive fluorescent dye or the thallium responsive dye and the plates were washed and placed into a suitable kinetic plate reader. For human mGluR4 assays, a fluorescence baseline was established for 3-5 seconds, the disclosed compounds were then added to the cells, and the response in cells was measured. Approximately two and a half minutes later, a concentration of mGluR4 orthosteric agonist (e.g. glutamate or L-AP4) eliciting approximately 20% (EC20) of the maximal agonist response was added to the cells, and the response was measured. Two minutes later, a concentration of mGluR4 agonist (e.g. glutamate or L-AP4) eliciting 80% (EC80) of the maximal agonist response was added to the cells, and the response was measured. […]

Amino acid sequences for entries named in this document (tags omitted). Residues count along the entry.
UniProt Q14833, 33-912: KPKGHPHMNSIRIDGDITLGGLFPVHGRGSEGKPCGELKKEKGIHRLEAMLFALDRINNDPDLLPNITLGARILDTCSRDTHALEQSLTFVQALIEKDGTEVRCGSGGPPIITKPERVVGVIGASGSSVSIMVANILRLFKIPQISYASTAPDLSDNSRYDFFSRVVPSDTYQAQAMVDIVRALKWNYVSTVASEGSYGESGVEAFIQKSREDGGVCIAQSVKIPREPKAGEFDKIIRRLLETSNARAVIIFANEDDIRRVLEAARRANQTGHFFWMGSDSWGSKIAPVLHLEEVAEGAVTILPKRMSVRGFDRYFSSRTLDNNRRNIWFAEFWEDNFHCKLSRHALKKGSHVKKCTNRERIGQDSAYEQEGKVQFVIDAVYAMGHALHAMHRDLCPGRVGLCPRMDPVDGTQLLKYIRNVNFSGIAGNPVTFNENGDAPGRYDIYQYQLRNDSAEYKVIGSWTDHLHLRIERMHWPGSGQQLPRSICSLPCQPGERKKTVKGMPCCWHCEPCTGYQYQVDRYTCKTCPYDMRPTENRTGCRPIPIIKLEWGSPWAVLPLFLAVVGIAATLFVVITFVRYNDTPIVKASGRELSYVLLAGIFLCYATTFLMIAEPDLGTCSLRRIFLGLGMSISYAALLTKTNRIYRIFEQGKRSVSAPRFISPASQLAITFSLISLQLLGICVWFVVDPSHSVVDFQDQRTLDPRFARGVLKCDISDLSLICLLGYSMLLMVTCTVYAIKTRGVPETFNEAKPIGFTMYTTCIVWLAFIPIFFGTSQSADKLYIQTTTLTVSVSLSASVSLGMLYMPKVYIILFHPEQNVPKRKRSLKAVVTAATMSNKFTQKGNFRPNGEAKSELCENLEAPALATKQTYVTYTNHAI

pEC50: −log10 of the molar value.

Turning to `O=C(Nc1ccc(N2C(=O)CC3(CCCCC3)C2=O)c(Cl)c1)c1ccccn1` [Example 15, N-(3-chloro-4-(1,3-dioxo-2-azaspiro[4.5]decan-2-yl)phenyl)picolinamide], the pEC50 is 6.87.

For `O=C(Nc1ccc(N2C(=O)CC(c3ccccc3)C2=O)c(Cl)c1)c1ccccn1` (centres unmarked) [Example 3, N-(3-chloro-4-(2,5-dioxo-3-phenylpyrrolidin-1-yl)phenyl)picolinamide], the pEC50 is 6.11.

(Values after patent US8759377B2, “Substituted dioxopiperidines and dioxopyrrolidines as MGLUR4 allosteric potentiators, compositions, and methods of treating neurological dysfunction” (Vanderbilt University, priority 2009, dated 2014).)
